Assay: Asymmetry factors
Parameters: species or system rat
Conditions: for AFin2, asymmetry factor: into CSFLV at BCSFB1; for AFin2, asymmetry factor / AFout2, asymmetry factor: calculated from Kp,uu,CSFLV; for AFin3, asymmetry factor: into CSFTFV at BCSFB2; for AFin3, asymmetry factor / AFout3, asymmetry factor: calculated from Kp,uu,CSFCM; for AFin1, asymmetry factor: into brainECF at BBB; for AFin1, asymmetry factor / AFout1, asymmetry factor: calculated from Kp,uu,brainECF; for AFout3, asymmetry factor: out from CSFTFV at BCSFB2; for AFout1, asymmetry factor: out from brainECF at BBB; for AFout2, asymmetry factor: out from CSFLV at BCSFB1

| Structure (SMILES) | AFin2, asymmetry factor | AFin3, asymmetry factor | AFin1, asymmetry factor | AFout3, asymmetry factor | AFout1, asymmetry factor | AFout2, asymmetry factor |
| --- | --- | --- | --- | --- | --- | --- |
| CN(Cc1cnc2nc(N)nc(N)c2n1)c1ccc(C(=O)N[C@@H](CCC(=O)O)C(=O)O)cc1 [Methotrexate] | 1.0 | 1.0 | 1.0 | 1.0*10^6 | 4.6*10^4 |  |
| C=C[C@H]1C[N@@]2CC[C@H]1C[C@@H]2[C@@H](O)c1ccnc2ccc(OC)cc12 [Quinidine] | 1.4 | 1.4 | 1.2 | 1.0 | 1.0 | 1.0 |
| CC(=O)Nc1ccc(O)cc1 [Acetaminophen] | 1.0 | 1.0 | 1.0 | 32 | 12 | 29 |
